From PubChem BioAssay AID2524 (Sanford-Burnham Center for Chemical Genomics, 2010) come the findings set out here.

The chains behind the UniProt entries cited, without tags or fusion partners. Where a name states a change or a piece, a line headed by the entry shows the natural chain unless it says otherwise.
UniProt P09923: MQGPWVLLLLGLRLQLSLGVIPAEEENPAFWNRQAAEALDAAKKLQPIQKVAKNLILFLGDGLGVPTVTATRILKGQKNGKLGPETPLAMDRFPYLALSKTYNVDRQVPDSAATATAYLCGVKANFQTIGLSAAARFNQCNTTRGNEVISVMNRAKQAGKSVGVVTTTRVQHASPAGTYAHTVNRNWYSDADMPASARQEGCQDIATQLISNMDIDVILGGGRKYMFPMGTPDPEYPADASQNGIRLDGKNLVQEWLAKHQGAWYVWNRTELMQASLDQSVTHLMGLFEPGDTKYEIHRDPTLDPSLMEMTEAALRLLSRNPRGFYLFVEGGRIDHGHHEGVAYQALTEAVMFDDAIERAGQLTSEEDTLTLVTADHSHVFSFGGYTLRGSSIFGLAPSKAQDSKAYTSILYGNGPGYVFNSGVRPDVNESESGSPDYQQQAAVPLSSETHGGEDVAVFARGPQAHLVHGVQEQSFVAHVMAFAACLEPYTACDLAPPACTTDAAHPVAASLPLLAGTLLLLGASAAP

This is a selection; strong and weak results do not stand in their true shares. Activity calls are given as the source filed them.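 How the source made its calls: active means activation factor of the enzyme at least 2-fold when tested at 20 µM; inactive means the rest.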

For this assay, the target named is Intestinal-type alkaline phosphatase (Homo sapiens) (UniProt P09923). In words: human IAP activators, primary screen, biochemical, luminescence, uHTS (AID 2524). The conditions noted are these: purified human IAP, CDP-Star luminescence, 30 min; at 10 µM; stronger effect = higher value; 1 = vehicle-only enzyme, 0 = enzyme-free background.
In the case of `CCOP1(=S)c2c(C)nn(CCC#N)c2N=C(c2ccc(F)cc2)N1C` (stereo not drawn), the activation factor was inactive: 0.612.

For the compound `CN(C)C(=O)c1cc([N+](=O)[O-])cc2c1-c1c(cc([N+](=O)[O-])cc1[N+](=O)[O-])C2=O`, the activation factor is inactive: 0.944.

Take `O=[N+]([O-])c1ccc2c(c1)nnn2O`: the activation factor was inactive: 0.918.

As to `CN(C(=O)Cc1ccc(Cl)c(Cl)c1)[C@H]1CC[C@@]2(CCCO2)C[C@@H]1N1CCCC1`, the activation factor was inactive: 0.854.

In the case of `O=C(OC1CN2CCC1CC2)c1ccc(Cl)cc1` (stereo not drawn), the activation factor was inactive: 0.928.

For `COc1cc(C(=O)NCC2(N3CCOCC3)CCCCC2)cc(Cl)c1OC(C)C`, the activation factor is inactive: 1.1.

With `O=[As](O)(O)c1cccnc1`, the activation factor was inactive: 0.953.

As for `CS(=O)(=O)c1ccc(Cl)c(NC(=O)COC(=O)C(O)(c2ccccc2)c2ccccc2)c1`, the activation factor is inactive: 1.26.

As for `O=[As](O)(c1cccc(O)c1)c1cccc(O)c1`, the activation factor was inactive: 0.878.

Turning to `Cc1cccc(OCC(=O)OC2CN3CCC2CC3)c1` (stereo not drawn), the activation factor was inactive: 0.872.

For `Cc1ccc(NCCc2c([N+](=O)[O-])cc([N+](=O)[O-])cc2[N+](=O)[O-])cc1`, the activation factor was inactive: 0.928.

In the case of `CCCOP(=S)(Nc1nc(N)cc(=O)[nH]1)OCCC`, the activation factor is inactive: 1.09.

For the compound `COc1cc(C2NCCC3(OCCO3)C2(C)C)cc(OC)c1OC` (stereo not drawn), the activation factor was inactive: 1.14.

Regarding `CCOP(=O)(Nc1cccc2ccccc12)OCC`, the activation factor is inactive: 0.927.

For `Cc1c2c(nc3ccccc13)SC(C(Cl)Cl)C2` (stereo not drawn), the activation factor is inactive: 0.915.

Consider `O=C(OC1CN2CCC1CC2)C12CC3CC(CC(C3)C1)C2` (stereo not drawn), for which the activation factor was inactive: 0.921.

On to `Cc1cc(=O)[nH]c(N[N+](=O)[O-])n1`, for which the activation factor is inactive: 1.06.

As to `COc1ccc2nc(NP(=O)(c3ccccc3)c3ccccc3)sc2c1`, the activation factor was inactive: 1.09.

With `COc1cc(I)ccc1[As](=O)(O)O`, the activation factor was inactive: 0.885.

Turning to `COc1ccc(N/C(=N/P(=O)(N2CCOCC2)N2CCOCC2)N2CCOCC2)cc1`, the activation factor was inactive: 0.968.

With `C[As](=O)(O)c1cccc(C(=O)O)c1`, the activation factor is inactive: 1.02.

`O=[As](O)(c1ccc(O)cc1)c1ccccc1O`: the activation factor is inactive: 1.12.

Take `COc1cc(C(=O)NCC2(N3CCOCC3)CCCCC2)ccc1OCC(C)C`: the activation factor is inactive: 1.12.

As to `Cc1ccc(OP(=O)(Nc2ccc([N+](=O)[O-])cn2)Oc2ccc(C)cc2)cc1`, the activation factor is inactive: 1.04.

As to `Cc1ccc2nc3c(c(C)c2c1)CC(C(Cl)Cl)S3` (stereo not drawn), the activation factor was inactive: 0.895.

For `ClCCSc1nnc(-c2cccnc2)o1`, the activation factor was inactive: 0.883.

Turning to `CC(C)c1ccc(OP(=O)(Nc2ccccn2)Oc2ccccc2F)cc1` (stereo not drawn), the activation factor was inactive: 0.909.

For `CCN(CC)C(=S)SC(NC=O)C(Cl)(Cl)Cl` (stereo not drawn), the activation factor is inactive: 1.17.

In the case of `O=C(OC1CN2CCC1CC2)c1cccc2[nH]cnc12` (stereo not drawn), the activation factor was inactive: 1.27.

On to `CC(C)NC(=O)NP(=O)(Oc1ccccc1)Oc1ccccc1`, for which the activation factor was inactive: 1.02.

Turning to `O=[N+]([O-])c1cc([N+](=O)[O-])c(-c2ccn[nH]2)s1`, the activation factor is inactive: 0.89.

For the compound `CCOC(=O)Nc1ccc([As](=O)(O)O)c(O)c1`, the activation factor was inactive: 1.06.

Turning to `CCCCOc1ccc(C(=O)NCC2(N3CCCCC3)CCCCC2)cc1OC`, the activation factor was inactive: 1.12.

`Cc1cc(SC(NC(=O)c2ccccc2)C(Cl)(Cl)Cl)nc(C(C)C)n1` (stereo not drawn): the activation factor is inactive: 0.983.

Take `CCOC(=O)Nc1cccc([As](=O)(O)O)c1`: the activation factor is inactive: 1.01.

`Cc1cc(SC(NC=O)C(Cl)(Cl)Cl)ncn1` (stereo not drawn): the activation factor is inactive: 1.22.

For the compound `O=P(Nc1ccccn1)(c1cccc2ccccc12)c1cccc2ccccc12`, the activation factor was inactive: 0.95.

On to `COP1(=S)c2c(C)nn(CCC#N)c2N=C(c2ccc(F)cc2)N1C` (stereo not drawn), for which the activation factor was inactive: 0.951.

As for `O=C(COc1ccccc1)OC1CN2CCC1CC2` (stereo not drawn), the activation factor was inactive: 1.13.

Take `O=C(Nc1ccncc1[N+](=O)[O-])c1ccc([N+](=O)[O-])cc1[N+](=O)[O-]`: the activation factor is inactive: 1.12.

For the compound `O=C(OC1CN2CCC1CC2)c1cccc([N+](=O)[O-])c1` (stereo not drawn), the activation factor is inactive: 0.953.

For the compound `CCOC(=O)c1ccc(NC(=O)C(C)(CCl)SC)cc1` (stereo not drawn), the activation factor was inactive: 0.999.

For `CCC(C)N(CC(C)C)C(=S)SC(NC(C)=O)C(Cl)(Cl)Cl` (stereo not drawn), the activation factor was inactive: 1.09.
